# Values of other authors as cited in patent publication US20120018333A1, “Reducing Side Effects of Tramadol” (priority 2007, published 2012).
# By UniProt entry, the sequences of proteins in these tests, tags left out.
# UniProt P35372, whole entry: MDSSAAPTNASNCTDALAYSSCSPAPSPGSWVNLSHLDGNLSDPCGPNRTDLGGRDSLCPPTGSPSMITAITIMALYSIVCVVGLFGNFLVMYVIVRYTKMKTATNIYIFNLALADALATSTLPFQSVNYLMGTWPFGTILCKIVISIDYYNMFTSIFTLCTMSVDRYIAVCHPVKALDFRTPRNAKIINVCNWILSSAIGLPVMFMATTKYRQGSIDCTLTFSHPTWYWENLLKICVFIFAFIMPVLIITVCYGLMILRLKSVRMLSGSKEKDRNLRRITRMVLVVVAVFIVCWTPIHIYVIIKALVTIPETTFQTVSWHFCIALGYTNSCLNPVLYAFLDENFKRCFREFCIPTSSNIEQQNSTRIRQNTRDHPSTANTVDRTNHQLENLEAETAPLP
# Target: μ-opioid receptors (Homo sapiens, UniProt P35372)
# Settings: M1 versus tramadol; cited from earlier work
structure (smiles),measurement,value
CN(C)C[C@H]1CCCC[C@]1(O)c1cccc(O)c1 [M1],potency in μ-opioid binding relative to tramadol,200 times
